Literature values, collected in publication PMC7942396, “Drug Repurposing Screen for Compounds Inhibiting the Cytopathic Effect of SARS-CoV-2” (Frontiers in Pharmacology, 2021).

Conditions: human; Single dose 600 mg PO; ref Winstanley et al. (1987); cited from earlier work

CCN(CC)Cc1cc(Nc2ccnc3cc(Cl)ccc23)ccc1O.Cl.Cl.O.O [Amodiaquine dihydrochloride, reference compound]
Elimination T1/2: 5.2 ± 1.7 h
